Test results as given in PubChem BioAssay AID651699 (Sanford-Burnham Center for Chemical Genomics, 2012).
This is a selection; strong and weak results do not stand in their true shares. Activity calls are given as the source filed them. Rule as the data show it: active = inhibition above about 36%; inactive = the rest.

Amino acid sequences for entries named in this document (tags omitted). A change or cut given only in a name is not applied to a line headed by its entry.
UniProt P61081: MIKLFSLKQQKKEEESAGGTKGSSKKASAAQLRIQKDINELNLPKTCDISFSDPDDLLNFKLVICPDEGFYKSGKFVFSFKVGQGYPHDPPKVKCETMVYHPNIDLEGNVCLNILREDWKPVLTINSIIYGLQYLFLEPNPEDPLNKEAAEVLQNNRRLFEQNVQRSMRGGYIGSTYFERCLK
UniProt Q13564: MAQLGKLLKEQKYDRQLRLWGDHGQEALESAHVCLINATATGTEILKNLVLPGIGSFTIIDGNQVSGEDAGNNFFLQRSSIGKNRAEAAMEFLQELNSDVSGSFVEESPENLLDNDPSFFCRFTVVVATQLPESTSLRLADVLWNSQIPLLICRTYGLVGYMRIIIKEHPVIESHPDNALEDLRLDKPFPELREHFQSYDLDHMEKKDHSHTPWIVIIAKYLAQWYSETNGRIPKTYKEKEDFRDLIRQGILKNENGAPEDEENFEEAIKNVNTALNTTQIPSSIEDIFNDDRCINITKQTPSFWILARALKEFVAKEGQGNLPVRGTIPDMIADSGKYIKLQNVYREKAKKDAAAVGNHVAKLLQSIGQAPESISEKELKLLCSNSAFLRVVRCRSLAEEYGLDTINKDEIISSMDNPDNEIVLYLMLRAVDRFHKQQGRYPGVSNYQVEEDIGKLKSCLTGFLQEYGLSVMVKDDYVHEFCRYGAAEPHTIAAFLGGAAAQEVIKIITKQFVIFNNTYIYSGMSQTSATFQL

What follows are compounds tested against NEDD8-conjugating enzyme Ubc12 (Homo sapiens) + NEDD8-activating enzyme E1 regulatory subunit (Homo sapiens) (UniProt P61081+Q13564) (assay: inhibitors of cullin neddylation, primary screen, biochemical, TR-FRET, uHTS, NAE and Ubc12 (AID 651699)). Details: at 25 µM, hits give high values.

Question: For O=C(NC(Sc1ccncn1)C(Cl)(Cl)Cl)c1ccccc1 (configuration not stated), which inhibition is on record?
Answer: inactive: 9.1%

Question: How did the inhibition turn out when Oc1ccccc1CNc1ccccn1 was run?
Answer: inactive: -0.45%

Question: O=[N+]([O-])C1C(O)C(O)C([N+](=O)[O-])C(O)C1O (configuration not stated) was tested. Which inhibition did it give?
Answer: inactive: -1.63%

Question: CCCC1OP(N)(=O)OCC1CC (configuration not stated) was tested. Which inhibition did it give?
Answer: inactive: -4.72%

Question: For CC(=O)Nc1ccc([As](=O)(O)O)cc1, which inhibition is on record?
Answer: inactive: 2.35%

Question: O=C(O)c1ccccc1[As](=O)(O)O was tested. Which inhibition did it give?
Answer: inactive: -0.11%

Question: With O=P(Nc1nc2ccc(Cl)cc2s1)(c1ccccc1)c1ccccc1 as the compound, how does the inhibition read?
Answer: inactive: 26.9%

Question: For CN(C)P(=O)(N(C)C)n1c(Nc2ccccc2)nnc1-c1ccccc1, which inhibition is on record?
Answer: inactive: 1.21%

Question: With CN(C(=O)Cc1ccc(Cl)c(Cl)c1)[C@H]1CCCC[C@@H]1N1CCCC1 as the compound, how does the inhibition read?
Answer: inactive: -1.15%

Question: How did the inhibition turn out when Cc1ccc(NP(=O)(Oc2ccccc2F)Oc2ccccc2F)nc1 was run?
Answer: inactive: 33.4%

Question: With Cc1cc(SC(NC(=O)c2ccc(F)cc2)C(Cl)(Cl)Cl)ncn1 (configuration not stated) as the compound, how does the inhibition read?
Answer: inactive: -0.22%

Question: CCOP(=O)(Nc1ccccc1)OCC was tested. Which inhibition did it give?
Answer: inactive: 5.63%

Question: How did the inhibition turn out when CCN(N=Nc1nonc1N)c1nonc1N was run?
Answer: inactive: -5.44%

Question: Which inhibition does the source give for Nc1cccc2ccc([As](=O)(O)O)cc12 here?
Answer: inactive: -0.05%

Question: Which inhibition does the source give for O=P1(N(CCCl)CCCl)OCCCS1 (configuration not stated) here?
Answer: inactive: -1.93%

Question: O=C(Nc1cc([As](=O)(O)O)ccc1O)c1ccccc1 was tested. Which inhibition did it give?
Answer: inactive: -1.36%

Question: How did the inhibition turn out when CC(C)(C)C(=O)NC(Sc1ccncn1)C(Cl)(Cl)Cl (configuration not stated) was run?
Answer: inactive: -3.08%

Question: With O=[N+]([O-])c1ncn(CCn2ncnc2[N+](=O)[O-])n1 as the compound, how does the inhibition read?
Answer: inactive: -10.5%

Question: With COC(=O)C1(C)COP(=O)(Nc2ccccc2)OC1 (configuration not stated) as the compound, how does the inhibition read?
Answer: inactive: 4.37%

Question: O=[N+]([O-])c1cccc(NC2=NCC(CBr)S2)c1 (configuration not stated) was tested. Which inhibition did it give?
Answer: inactive: -25.6%

Question: How did the inhibition turn out when O=C(O)CNc1ccc([As](=O)(O)O)cc1 was run?
Answer: inactive: 4.52%

Question: COc1ccc(C2=NCC(CBr)S2)cc1 (configuration not stated) was tested. Which inhibition did it give?
Answer: inactive: 7.98%

Question: How did the inhibition turn out when CC(=O)N1C2C3N(C(C)=O)C1C1N(C(C)=O)C(C(N1C(C)=O)N3C(C)=O)N2C(C)=O was run?
Answer: inactive: -1.37%

Question: O=[N+]([O-])c1cccc2n[nH]nc12 was tested. Which inhibition did it give?
Answer: inactive: -21.8%

Question: How did the inhibition turn out when O=[N+]([O-])c1cc([N+](=O)[O-])c(CCNc2ccccc2)c([N+](=O)[O-])c1 was run?
Answer: inactive: -37.8%

Question: Which inhibition does the source give for CCc1nc2c(n1)c1c(non1O)c1c2no[n+]1[O-] here?
Answer: inactive: -34.8%

Question: Which inhibition does the source give for Cc1ccc(NP(=O)(Oc2ccccc2)Oc2ccccc2)nc1 here?
Answer: inactive: 30%

Question: Which inhibition does the source give for C[N+]1=C2C=CC=CC=C2SC12C([N+](=O)[O-])=CC([N+](=O)[O-])=C[C-]2[N+](=O)[O-] (configuration not stated) here?
Answer: inactive: -37.4%

Question: For Nc1ccc([As](=O)(O)c2ccc(N)cc2)cc1, which inhibition is on record?
Answer: inactive: 5.13%

Question: Which inhibition does the source give for CCN(/C(=N/P(=O)(N1CCOCC1)N1CCOCC1)N1CCOCC1)c1ccc(OC)cc1 here?
Answer: inactive: 4.23%

Question: CN(C)C(=O)OCCc1n(C)cc[n+]1C was tested. Which inhibition did it give?
Answer: inactive: 0.04%

Question: Which inhibition does the source give for CC(C)c1nc(Nc2ccccc2)n(P(=O)(N(C)C)N(C)C)n1 here?
Answer: inactive: -3.68%

Question: How did the inhibition turn out when CC(C)=N/N=C(\N)N[N+](=O)[O-] was run?
Answer: inactive: 0.53%

Question: For CC1CCN(C(=O)Oc2c(Cl)cc(Cl)c3cccnc23)CC1, which inhibition is on record?
Answer: inactive: -19.3%

Question: For c1cc(-c2nn[nH]n2)ccc1-c1nn[nH]n1, which inhibition is on record?
Answer: inactive: 1.1%

Question: How did the inhibition turn out when O=P(Nc1nccs1)(c1ccccc1)c1ccccc1 was run?
Answer: inactive: -0.67%

Question: For CC(C)C(=O)NC(Sc1ccccc1)C(Cl)(Cl)Cl (configuration not stated), which inhibition is on record?
Answer: inactive: -5.29%

Question: For c1nnnn1CCn1cnnn1, which inhibition is on record?
Answer: inactive: -2.36%

Question: For COc1ccc(N)c([N+](=O)[O-])c1[N+](=O)[O-], which inhibition is on record?
Answer: inactive: -66.5%

Question: Which inhibition does the source give for Nc1ccc(CCCCOc2ccccc2)cc1 here?
Answer: inactive: -29.1%

Question: For CN(C)C1(CNC(=O)c2ccc(Cl)c(S(N)(=O)=O)c2)CCCCC1, which inhibition is on record?
Answer: inactive: 3.22%

Question: For O=P(Nc1ccccn1)(c1ccc(Br)cc1)c1ccc(Br)cc1, which inhibition is on record?
Answer: inactive: 3.85%

Question: C[C@H]1OP(=O)(Oc2ccccc2)[C@H](O)[C@H](O)[C@H]1N=[N+]=[N-] (some centres not stated) was tested. Which inhibition did it give?
Answer: inactive: -11.7%

Question: O=P(Nc1nc2ccccc2s1)(c1ccccc1)c1ccccc1 was tested. Which inhibition did it give?
Answer: inactive: 0.31%

Question: With O=[N+]([O-])c1ncn(CCn2cnc([N+](=O)[O-])n2)n1 as the compound, how does the inhibition read?
Answer: inactive: -30.9%

Question: CC(=O)NC(SC(=S)N(C)C)C(Cl)(Cl)Cl (configuration not stated) was tested. Which inhibition did it give?
Answer: inactive: -2.35%

Question: How did the inhibition turn out when O=[N+]([O-])c1ccc(O)c(/C=N/Nc2ccc([N+](=O)[O-])cc2[N+](=O)[O-])c1 was run?
Answer: inactive: -64.9%

Question: How did the inhibition turn out when O=[As](O)(c1ccccc1)c1ccc(O)cc1 was run?
Answer: inactive: 4.04%

Question: How did the inhibition turn out when C(Cc1nn[nH]n1)Cc1nn[nH]n1 was run?
Answer: inactive: 2.73%

Question: Nc1ccc([As](=O)(O)c2ccc([N+](=O)[O-])cc2)cc1 was tested. Which inhibition did it give?
Answer: inactive: -24.1%

Question: With O=C(OC1CN2CCC1CC2)c1cccc(Cl)c1 (configuration not stated) as the compound, how does the inhibition read?
Answer: inactive: -1.26%

Question: How did the inhibition turn out when O=C(NC1CCS(=O)(=O)C1)NP(=S)(Oc1ccccc1)Oc1ccccc1 (configuration not stated) was run?
Answer: inactive: 11.7%

Question: With CCNC(=S)/N=C(\N)N[N+](=O)[O-] as the compound, how does the inhibition read?
Answer: inactive: 13.6%

Question: With Cc1ccc(NP(=O)(Oc2cccc(C)c2)Oc2cccc(C)c2)nc1 as the compound, how does the inhibition read?
Answer: inactive: 5.39%

Question: With c1ccc(-c2nn[nH]n2)c(-c2nn[nH]n2)c1 as the compound, how does the inhibition read?
Answer: inactive: 18.6%

Question: How did the inhibition turn out when O=P1(N(CCCl)CCCl)OCCC2CCCCN21 (configuration not stated) was run?
Answer: inactive: -4.23%

Question: Cc1ccc(OP(=O)(Nc2ccccn2)Oc2ccc(C)cc2)cc1 was tested. Which inhibition did it give?
Answer: inactive: -4.71%

Question: CC(=O)NC(SC(=S)N(CC(C)C)CC(C)C)C(Cl)(Cl)Cl (configuration not stated) was tested. Which inhibition did it give?
Answer: inactive: 11.6%

Question: How did the inhibition turn out when COC(=O)c1cc2c(s1)N=C(c1ccccc1)N(C)P2(=O)N1CCOCC1 (configuration not stated) was run?
Answer: inactive: -1.33%

Question: Which inhibition does the source give for CCC(=O)N1C2C3N(C(=O)CC)C1C1N(C(=O)CC)C(C(N1C(=O)CC)N3C(=O)CC)N2C(=O)CC here?
Answer: inactive: 1.13%

Question: For O=C(OC1CN2CCC1CC2)c1ccccc1 (configuration not stated), which inhibition is on record?
Answer: inactive: 4.76%

Question: How did the inhibition turn out when O=c1c2cc([N+](=O)[O-])ccc2[nH]c2c([N+](=O)[O-])cc([N+](=O)[O-])cc12 was run?
Answer: inactive: -60.9%

Question: With CN(C)C(=O)Oc1noc2ccccc12 as the compound, how does the inhibition read?
Answer: inactive: 3.78%

Question: With CC(NC(=O)COC(=O)C(O)(c1ccccc1)c1ccccc1)c1ccccc1 (configuration not stated) as the compound, how does the inhibition read?
Answer: inactive: 5.94%

Question: Which inhibition does the source give for Cc1ccccc1OP(=O)(Nc1ccccn1)Oc1ccccc1C here?
Answer: inactive: 26.7%

Question: CCOc1ccc(C2=NCC(CBr)S2)cc1 (configuration not stated) was tested. Which inhibition did it give?
Answer: inactive: -2.45%

Question: O=P1(Nc2nc3ccc(Cl)cc3s2)COc2ccccc2O1 (configuration not stated) was tested. Which inhibition did it give?
Answer: inactive: 13.6%

Question: CCc1cc(O)c([N+](=O)[O-])c(C)c1[N+](=O)[O-] was tested. Which inhibition did it give?
Answer: inactive: -3.08%

Question: CC(C)(C)C(=O)NC(Sc1ccccc1)C(Cl)(Cl)Cl (configuration not stated) was tested. Which inhibition did it give?
Answer: inactive: 0.06%

Question: COC(=O)C1(C)COP(=O)(NCc2ccccc2)OC1 (configuration not stated) was tested. Which inhibition did it give?
Answer: inactive: 2.6%

Question: CC(=O)c1ccc(N2CC2c2ccncc2)cc1 (configuration not stated) was tested. Which inhibition did it give?
Answer: inactive: -2.09%

Question: With N#C/C(=C\c1ccc(N(CCBr)CCBr)cc1)C(N)=O as the compound, how does the inhibition read?
Answer: inactive: -12.9%

Question: Which inhibition does the source give for C[C@H]1OP(=O)(Oc2ccccc2)C[C@@H]2O[C@@H]21 (some centres not stated) here?
Answer: inactive: 6.11%

Question: How did the inhibition turn out when C[C@@H]1C=CCP(=O)(Oc2ccccc2)O1 (some centres not stated) was run?
Answer: inactive: -34.7%

Question: With Cc1ccccc1CN(C)C(=O)COC(=O)C(O)(c1ccccc1)c1ccccc1 as the compound, how does the inhibition read?
Answer: inactive: 12.7%

Question: For CC(=O)Nc1ccc(Oc2c([N+](=O)[O-])cc([N+](=O)[O-])cc2[N+](=O)[O-])cc1, which inhibition is on record?
Answer: inactive: -44%

Question: Which inhibition does the source give for CC(=O)Nc1ccc([As](=O)(O)O)c(O)c1 here?
Answer: inactive: 6.12%
